The record followed here is article PMC4449000.

The target in this assay is purified HLA-B*57:01 with human β2-microglobulin (human). The experiment in a line: radioligand binding.

For radiolabeled … (peptide), the fold increase in bound peptide with abacavir against no drug is under 5 fold and the fold increase in bound peptide with acyclovir against no drug amounted to 2 fold.
